Only a part is listed here, and it is no random draw. Inconclusive results are not listed. Calls of active or inactive are those of the source. Calls come from the whole dose curve; as a rule, active = well fitted cell-killing curve with a large enough effect; inconclusive = small, poorly fitted or top-dose-only effect; inactive = no such curve, though single readings can be large or run the other way.
Assay: qHTS Screen for Compounds that Selectively Target Cancer Cells with p53 Mutations: Cytotoxicity of p53ts Cells at the Permissive Temperature;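 note: 0% = DMSO and -100% = full killing by reference compound; nearly all actives have a fitted effect of over 55% in size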
Settings: H1299-p53A138V at 32C, ATP luminescence viability, 24 h; at 46.1 µM (top of the series) unless noted
In the case of `CCCOc1cccc(C(=O)NCC2(N3CCOCC3)CCCCC2)c1`, the activity change, negative = cytotoxicity is reported as inactive: -0.442%. With `N#CC1(Nc2ccccc2)CCN(CCc2ccccc2)CC1` the activity change, negative = cytotoxicity was inactive: -7.1%. With `CCOc1ccc(C(=O)NCC2(N3CCOCC3)CCCCC2)cc1` the activity change, negative = cytotoxicity was inactive: 0.318%. In the case of `CCCCOc1ccccc1C(=O)NCC1(N2CCOCC2)CCCCC1`, the activity change, negative = cytotoxicity is reported as inactive: -3.02%. For `O=C(NCC1(N2CCOCC2)CCCCC1)c1ccccc1Br`, the activity change, negative = cytotoxicity was inactive: 5.01%. For `O=C(OC1CN2CCC1CC2)C1c2ccccc2Oc2ccccc21` (stereo unspecified), the activity change, negative = cytotoxicity was inactive: -9.29%. In the case of `O=C(NCC1(N2CCOCC2)CCCCC1)c1ccc(Cl)cc1`, the activity change, negative = cytotoxicity is reported as inactive: -2.75%. With `COc1ccccc1C(=O)NCC1(N2CCOCC2)CCCCC1` the activity change, negative = cytotoxicity was inactive: 0.0067%. With `COc1ccc(NC2CCN(CCc3ccccc3)CC2)c(OC)c1` the activity change, negative = cytotoxicity was inactive: -2.91%. With `Cc1ccccc1C(=O)NCC1(N(C)C)CCCCC1` the activity change, negative = cytotoxicity was inactive: 2.12%. With `CC(C)(C)c1ccc(C(=O)NCC2(N3CCOCC3)CCCCC2)cc1` the activity change, negative = cytotoxicity was inactive: -5.97%. With `CN(C)C1(CNC(=O)c2ccc(C(C)(C)C)cc2)CCCCC1` the activity change, negative = cytotoxicity was inactive: -6.12%. For `Fc1ccccc1NC1CCN(Cc2ccccc2)CC1`, the activity change, negative = cytotoxicity was inactive: -15.2%. In the case of `COc1cc(C(=O)NCC2(N3CCOCC3)CCCCC2)cc(OC)c1OC`, the activity change, negative = cytotoxicity is reported as inactive: -5.59%. In the case of `CCC(CO)(C(=O)OC1CN2CCC1CC2)c1ccccc1` (stereo unspecified), the activity change, negative = cytotoxicity is reported as inactive: -0.426%. With `CCOc1ncccc1C(=O)NCC1(N2CCOCC2)CCCCC1` the activity change, negative = cytotoxicity was inactive: -1.42%. For `O=C(O)C1(Nc2ccccc2)CCN(Cc2ccccc2)CC1`, the activity change, negative = cytotoxicity was inactive: 5.38% [at 9.22 µM]. For `N/C(=N\O)c1c(N)no[n+]1[O-]`, the activity change, negative = cytotoxicity was inactive: -11.7%. With `O=C(NCC1(N2CCOCC2)CCCCC1)c1ccccc1` the activity change, negative = cytotoxicity was inactive: 0.152%. In the case of `O=C(NCC1(N2CCOCC2)CCCCC1)c1ccccc1[N+](=O)[O-]`, the activity change, negative = cytotoxicity is reported as inactive: 6.41%. With `O=C(NCC1(N2CCOCC2)CCCCC1)c1ccc([N+](=O)[O-])cc1` the activity change, negative = cytotoxicity was inactive: -2.64%.

From PubChem BioAssay AID924 (National Center for Advancing Translational Sciences (NCATS), 2007)
